Biological target: zfUox (Danio rerio, UniProt Q6DG85)
Assay: urate oxidase activity assay, in vitro
Settings: substrate urate; assay details not told

Chains of the proteins cited; added tags and fusions are not shown. Lines headed by an entry give the natural chain unless they say otherwise; changes in a name come on top.
UniProt Q6DG85: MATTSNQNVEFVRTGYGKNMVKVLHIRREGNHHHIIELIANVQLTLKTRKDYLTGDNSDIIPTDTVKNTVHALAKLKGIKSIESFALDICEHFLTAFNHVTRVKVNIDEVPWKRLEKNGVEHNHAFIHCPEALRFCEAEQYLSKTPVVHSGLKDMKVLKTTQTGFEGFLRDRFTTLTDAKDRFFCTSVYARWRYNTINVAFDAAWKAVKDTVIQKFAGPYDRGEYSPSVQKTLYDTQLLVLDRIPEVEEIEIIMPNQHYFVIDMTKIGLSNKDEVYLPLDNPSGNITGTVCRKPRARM

Work on [N-]=[N+]=N yielded an IC50 of 20 mM.

Reference: paper PMC4562309, “The identification of an integral membrane, cytochrome c urate oxidase completes the catalytic repertoire of a therapeutic enzyme” (2015)
